## Apparent affinities of Ab-14 variants for a coronavirus HR2 peptide

Reference: Li et al. 2023, doi:10.1038/s41467-023-39022-2. File: FLAb, binding data.

Antigen: PDVDLGDISGINAS, a 14-residue peptide of the SARS-CoV-2 spike HR2 region.

Parent: Ab-14, a human scFv built as VH, a (GGGGS)3 linker, VL. Only the CDRs of the heavy chain vary.
VH: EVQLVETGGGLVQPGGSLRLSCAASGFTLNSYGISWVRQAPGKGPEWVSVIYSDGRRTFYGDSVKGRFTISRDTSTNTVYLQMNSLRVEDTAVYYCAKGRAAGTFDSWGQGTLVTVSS
VL: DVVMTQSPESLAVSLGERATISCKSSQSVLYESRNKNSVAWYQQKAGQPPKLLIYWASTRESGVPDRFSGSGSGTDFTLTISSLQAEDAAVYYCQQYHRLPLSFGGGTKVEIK

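Phage display of a naive human antibody library on the peptide gave the parent. The variants were designed computationally from a first round of random CDR variants and then made and measured. Their group label is 14H_En_Gen (En: ensemble of fine-tuned language models; Gen: genetic algorithm). In AlphaSeq, yeast of one mating type display the scFv and yeast of the other type display the target. After mating in shaken culture at 30 °C for 16 h, diploids were selected and their barcode pairs sequenced. Each replicate has its own calibration line, from reference interactions of the BCL2 family. The assay was run in six technical replicates.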

Variants are written as CDR1, CDR2 and CDR3 of the heavy chain (limits as in the source). Parent: GFTLNSYGIS, VIYSDGRRTFYGDSVK, GRAAGTFDS.
Scale: log10 of Kd in nM, estimated from mating counts; low values are strong binders.
Averages over replicates are reported, and they cover detected replicates only.
An entry "nd" has no value in the source: the pair was not observed among the diploids in that replicate. This suggests poor binding but is not conclusive.
The authors' rule: three or more of the six replicates give a measured affinity, fewer mean a poor binder.
Values of this round are not directly comparable with the first-round values of the same sequences.
Three control strains display no target. For all heavy chain designs, 1% of the pairings with them gave a signal, with a median of 2.08 and one signal in twenty below 0.84, so weak values seen in few replicates may be background. For each scFv, signals with the empty controls are counted beside the result.

For GFDLDEYGIS / VIYADGMRTAYIDSVK / GEVAGTFDL, the assay gave -0.24, -0.14, -0.13, -0.48, -0.20, -0.06 (mean -0.21; controls 0 of 18).
For GFDLDEYGIS / VIYADGQRTAYAESVK / GENAGTFDV, the assay gave 0.07, 0.27, -0.04, -0.10, -0.22, -0.07 (mean -0.02; controls 3 of 18).
For GFDLNEYGIS / VIYADGMRTAYADNVK / GNVAGTFDT, the assay gave -0.27, -0.16, -0.50, -0.59, -0.55, -0.35 (mean -0.41; controls 0 of 18).
For GFDLNEYGIS / VIYADGKRTYYADSVK / GNQAGTFDV, the assay gave nd, nd, nd, nd, -0.32, nd (controls 0 of 18).
For GFDLNEYGIS / VIYADGKRTAYSDSVK / GENAGTFDQ, the assay gave 0.44, -0.51, -0.17, -0.63, 0.82, 0.84 (mean 0.13; controls 0 of 18).
For GFDLNEYGIS / VIYADGMRTAYADSVK / GNVAGTFDF, the assay gave 0.64, 0.20, -0.26, 0.16, 0.63, -0.08 (mean 0.21; controls 0 of 18).
For GFDLNEYGIS / VIYADGMRTAYANSVK / GETAGTFDL, the assay gave -0.21, -0.32, -0.41, -0.76, -1.11, -0.46 (mean -0.54; controls 0 of 18).
For GFDLNEYGIS / VIYADGVRTSYADSVK / GEVAGTFDL, the assay gave -1.06, -0.86, nd, nd, -1.56, nd (mean -1.16; controls 0 of 18).
For GFDLNEYGIS / VIYADGKRTAYADKVK / GNVAGTFDI, the assay gave -0.88, -0.96, -0.08, -1.47, -0.88, -1.23 (mean -0.92; controls 0 of 18).
For GFDLDEYGIS / VIYADGKRTAYADSVK / GNEAGTFDI, the assay gave 0.24, -0.53, -0.66, 0.22, -0.27, -0.14 (mean -0.19; controls 0 of 18).
For GFDLNEYGIS / VIYADGSRTAYADSVK / GVNAGTFDV, the assay gave -0.46, -0.32, -0.55, -0.70, -0.24, 0.22 (mean -0.34; controls 0 of 18).
For GFDLNEYGIS / VIYADGRRTAYADSVK / GGNAGTFDI, the assay gave -0.10, 0.02, -0.13, -0.11, -0.23, 0.22 (mean -0.06; controls 0 of 18).
For GFDLNEYGIS / VIYADGVRTFYADSVK / GEVAGTFDV, the assay gave -0.69, -0.71, -0.65, -0.46, -0.45, -0.19 (mean -0.53; controls 1 of 18).
For GFDLNEYGIS / VIYADGQRTAYADAVK / GNVAGTFDV, the assay gave -0.80, -0.86, -0.76, -0.97, -1.01, -0.77 (mean -0.86; controls 0 of 18).
For GFDLNEYGIS / VIYADGQRTAYTDSVK / GTNAGTFDV, the assay gave -0.58, -0.55, -0.65, -0.84, -0.74, -0.70 (mean -0.68; controls 0 of 18).
For GFDLNEYGIS / VIYADGRRTAYANSVK / GENAGTFDV, the assay gave 0.34, 1.66, -0.34, 0.06, 0.76, 0.76 (mean 0.54; controls 0 of 18).
For GFDLNEYGIS / VIYADGKRTAYADSVK / GETAGTFDL, the assay gave -0.14, 0.12, -0.09, -0.48, -0.43, -0.18 (mean -0.20; controls 0 of 18).
For GFDLNEYGIS / VIYADGMRTAYADSVK / GEIAGTFDT, the assay gave -0.15, 0.24, -0.13, -0.18, -0.11, -0.21 (mean -0.09; controls 0 of 18).
For GFDLEDYGIS / VIYADGRRTAYADSVK / GNVAGTFDQ, the assay gave 0.40, -0.21, -0.39, -0.17, -0.39, -0.14 (mean -0.15; controls 0 of 18).
For GFDLNEYGIS / VIYADGMRTVYSDSVK / GNVAGTFDL, the assay gave -0.23, 0.58, -0.47, -0.37, 0.01, -0.09 (mean -0.10; controls 0 of 18).
For GFDLNEYGIS / VIYADGQRTAYADNVK / GNNAGTFDV, the assay gave nd, 0.85, 1.25, 0.79, nd, 3.37 (mean 1.56; controls 0 of 18).
For GFDLNEYGIS / VIYADGMRTAYADNVK / GNVAGTFDV, the assay gave -0.61, -0.81, -0.75, -0.77, -0.47, -0.37 (mean -0.63; controls 1 of 18).
For GFDLNEYGIS / VIYADGRRTAYIDSVK / GETAGTFDV, the assay gave -0.02, -0.58, -0.26, -0.54, -0.22, -0.31 (mean -0.32; controls 0 of 18).
For GFDLDEYGIS / VIYADGMRTAYADSVK / GQNAGTFDQ, the assay gave -0.39, -0.37, -0.33, -0.39, -0.27, -0.33 (mean -0.35; controls 0 of 18).
For GFDLNEYGIS / VIYADGVRTYYADSVK / GNTAGTFDV, the assay gave -0.62, -0.24, -0.03, -0.71, -0.86, -0.76 (mean -0.53; controls 0 of 18).
For GFDLDEYGIS / VIYADGSRTVYADSVK / GEVAGTFDV, the assay gave -0.61, -0.40, -0.47, -0.01, -0.37, -0.26 (mean -0.35; controls 0 of 18).
For GFDLNEYGIS / VIYADGMRTAYSDSVK / GETAGTFDQ, the assay gave -0.25, -0.62, -0.46, -0.48, -0.58, -0.56 (mean -0.49; controls 0 of 18).
For GFDLDEYGIS / VIYADGMRTAYADNVK / GNQAGTFDV, the assay gave 0.67, 0.90, 0.27, 1.09, -0.19, 2.43 (mean 0.86; controls 1 of 18).
For GFDLDEYGIS / VIYADGMRTFYADDVK / GNQAGTFDV, the assay gave -0.53, 0.51, 0.78, -0.68, 0.71, -0.42 (mean 0.06; controls 0 of 18).
For GFDLNEYGIS / VIYADGMRKAYADSVK / GNVAGTFDL, the assay gave -0.53, -0.38, -0.84, -0.32, -0.61, -0.71 (mean -0.57; controls 0 of 18).
For GFDLNEYGIS / VIYADGRRTAYADNVK / GNVAGTFDL, the assay gave -0.28, -0.44, -0.56, -0.76, -0.52, -0.44 (mean -0.50; controls 0 of 18).
For GFDLDEYGIS / VIYADGQRTAYADSVK / GETAGTFDI, the assay gave -0.09, 0.17, -0.12, -0.33, 0.49, 0.98 (mean 0.18; controls 0 of 18).
For GFDLNEYGIS / VIYADGVRTAYSDSVK / GDNAGTFDV, the assay gave -0.18, 0.26, -0.21, 0.09, -0.35, -0.07 (mean -0.08; controls 0 of 18).
For GFDLNEYGIS / VIYADGKRTYYADSVK / GNVAGTFDL, the assay gave -0.04, -0.18, 1.25, -0.34, -0.26, -0.30 (mean 0.02; controls 0 of 18).
For GFDLDEYGIS / VIYADGRRTAYADSVK / GNQAGTFDM, the assay gave 0.06, -0.28, -0.18, -0.71, -0.35, -0.08 (mean -0.26; controls 0 of 18).